The chains behind the UniProt entries cited, without tags or fusion partners. Residues count along the entry.
UniProt Q99873, 29-371: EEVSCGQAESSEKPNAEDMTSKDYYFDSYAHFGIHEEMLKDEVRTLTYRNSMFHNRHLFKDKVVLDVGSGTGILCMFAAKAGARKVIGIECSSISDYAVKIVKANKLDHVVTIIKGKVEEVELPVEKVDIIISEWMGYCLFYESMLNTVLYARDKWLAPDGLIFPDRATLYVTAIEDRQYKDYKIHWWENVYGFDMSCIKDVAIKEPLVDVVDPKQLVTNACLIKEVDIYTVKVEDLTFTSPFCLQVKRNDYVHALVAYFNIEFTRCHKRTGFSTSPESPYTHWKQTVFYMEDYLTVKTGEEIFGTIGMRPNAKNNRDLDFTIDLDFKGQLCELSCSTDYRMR

In paper PMC5843908, “Detection of PRMT1 inhibitors with stopped flow fluorescence” (Signal Transduction and Targeted Therapy, 2018):

Target: PRMT1 (Homo sapiens, UniProt Q99873)
Test: Stopped flow fluorescence assay of PRMT1 inhibition ([PRMT1] 0.2 µM, [SAM] 3.5 µM, [H4FL] 0.4 µM);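 note: Stopped-flow traces of fluorescent H4FL peptide quenched on binding PRMT1 and restored on release, recorded 900 s, averaged over repeated drives and fit to a double-exponential model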
Assay type: biochemical

Nc1ncnc2c1ncn2[C@@H]1O[C@H](CSCC[C@H](N)C(=O)O)[C@@H](O)[C@H]1O [SAH, S-adenosyl homocysteine]
a·k1 (slope of Phase I) ([SAH] 5 µM): 0.0171 ± 4.08e-05 s⁻¹
a·k1 (slope of Phase I) ([SAH] 10 µM): 0.0163 ± 5.57e-05 s⁻¹
